SMILES strings stand for the structures.

By UniProt entry, the sequences of proteins in these tests, tags left out.
UniProt P14902, whole entry, looked up: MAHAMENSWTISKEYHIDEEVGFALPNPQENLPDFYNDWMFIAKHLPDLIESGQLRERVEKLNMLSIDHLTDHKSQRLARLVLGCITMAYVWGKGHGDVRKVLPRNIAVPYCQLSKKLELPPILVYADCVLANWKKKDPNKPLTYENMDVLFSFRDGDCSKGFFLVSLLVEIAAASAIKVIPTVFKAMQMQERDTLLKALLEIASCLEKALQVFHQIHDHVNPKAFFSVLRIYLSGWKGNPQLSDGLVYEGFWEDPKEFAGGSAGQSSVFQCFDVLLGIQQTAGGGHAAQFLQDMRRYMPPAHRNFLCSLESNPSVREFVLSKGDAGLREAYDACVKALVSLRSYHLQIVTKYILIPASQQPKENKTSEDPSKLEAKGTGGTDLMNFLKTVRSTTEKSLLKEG

This test has as its target indoleamine 2, 3-dioxygenase (IDO1) (Homo sapiens, UniProt P14902). Briefly: PBMC IDO1 assay (kynurenine via mass spectrometry). Format: cell-based. The conditions noted are these: human PBMC stimulated with IFN-γ and LPS, 2 days, kynurenine by mass spectrometry; recorded as pIC50. The protocol:
Compounds of the present invention were tested via high-throughput cellular assays utilizing detection of kynurenine via mass spectrometry and cytotoxicity as end-points. For the mass spectrometry and cytotoxicity assays, human peripheral blood mononuclear cells (PBMC) (PB003F; AllCells®, Alameda, Calif.) were stimulated with human interferon-γ (IFN-γ) (Sigma-Aldrich Corporation, St. Louis, Mo.) and lipopolysaccharide from Salmonella minnesota (LPS) (Invivogen, San Diego, Calif.) to induce the expression of indoleamine 2, 3-dioxygenase (IDO1). Compounds with IDO1 inhibitory properties decreased the amount of kynurenine produced by the cells via the tryptophan catabolic pathway. Cellular toxicity due to the effect of compound treatment was measured using CellTiter-Glo® reagent (CTG) (Promega Corporation, Madison, Wis.), which is based on luminescent detection of ATP, an indicator of metabolically active cells.
In preparation for the assays, test compounds were serially diluted 3-fold in DMSO from a typical top concentration of 5 mM and plated at 0.5 μL in 384-well, polystyrene, clear bottom, tissue culture treated plates with lids (Greiner Bio-One, Kremsmünster, Austria) to generate 11-point dose response curves. Low control wells (0% kynurenine or 100% cytotoxicity) contained either 0.5 μL of DMSO in the presence of unstimulated (-IFN-γ/-LPS) PBMCs for the mass spectrometry assay or 0.5 μL of DMSO in the absence of cells for the cytotoxicity assay, and high control wells (100% kynurenine or 0% cytotoxicity) contained 0.5 μL of DMSO in the presence of stimulated (+IFN-γ/+LPS) PBMCs for both the mass spectrometry and cytotoxicity assays.
Frozen stocks of PBMCs were washed and recovered in RPMI 1640 medium (Thermo Fisher Scientific, Inc., Waltham, Mass.) supplemented with 10% v/v heat-inactivated fetal bovine serum (FBS) (Thermo Fisher Scientific, Inc., Waltham, Mass.), and 1× penicillin-streptomycin antibiotic solution (Thermo Fisher Scientific, Inc., Waltham, Mass.). The cells were diluted to 1,000,000 cells/mL in the supplemented RPMI 1640 medium. 50 μL of either the cell suspension, for the mass spectrometry assay, or medium alone, for the cytotoxicity assay, were added to the low control wells, on the previously prepared 384-well compound plates, resulting in 50,000 cells/well or 0 cells/well respectively. IFN-γ and LPS were added to the remaining cell suspension at final concentrations of 100 ng/ml and 50 ng/ml respectively, and 50 μL of the stimulated cells were added to all remaining wells on the 384-well compound plates. The plates, with lids, were then placed in a 37° C., 5% CO2 humidified incubator for 2 days.
Following incubation, the 384-well plates were removed from the incubator and allowed to equilibrate to room temperature for 30 minutes. For the cytotoxicity assay, CellTiter-Glo® was prepared according to the manufacturer's instructions, and 40 μL were added to each plate well. After a twenty minute incubation at room temperature, luminescence was read on an EnVision® Multilabel Reader (PerkinElmer Inc., Waltham, Mass.). For the mass spectrometry assay, 10 μL of supernatant from each well of the compound-treated plates were added to 40 μL of acetonitrile, containing 10 μM of an internal standard for normalization, in 384-well, polypropylene, V-bottom plates (Greiner Bio-One, Kremsmünster, Austria) to extract the organic analytes. Following centrifugation at 2000 rpm for 10 minutes, 10 μL from each well of the acetonitrile extraction plates were added to 90 μL of sterile, distilled H2O in 384-well, polypropylene, V-bottom plates for analysis of kynurenine and the internal standard on the RapidFire 300 (Agilent Technologies, Santa Clara, Calif.) and 4000 QTRAP MS (SCIEX, Framingham, Mass.). MS data were integrated using Agilent Technologies' RapidFire Integrator software, and data were normalized for analysis as a ratio of kynurenine to the internal standard. […]

For `Cc1ccc(C(=O)NC(CC(C)C)C2CCN(C(=O)Oc3cccnc3C)CC2)s1` (centres unmarked), the “PBMC PXC50_” value turned out to be 9. For `Cc1ncccc1OC(=O)N1CCC(C(C)NC(=O)c2ccc(Br)cc2)CC1` (centres unmarked), the “PBMC PXC50_” value amounted to 7.1. Regarding `Cc1ccnc(C)c1OC(=O)N1CCC([C@H](NC(=O)c2ccc(Cl)s2)C2CC2)CC1`, the “PBMC PXC50_” value was found to be 8.8. To `CC(NC(=O)c1ccc(Br)cc1)C1CCN(C(=O)Oc2cccnc2F)CC1` (centres unmarked) belongs 6.9. For the compound `Cc1ncccc1OC(=O)N1CCC([C@H](NC(=O)c2ccc(Cl)s2)C2CC2)CC1`, the “PBMC PXC50_” value is reported as 8.5. For `O=C(NC(C1CC1)C1CCN(C(=O)Oc2cccnc2)CC1)c1ccc(F)cc1` (centres unmarked), the “PBMC PXC50_” value is reported as 6.2. With `Cc1ncccc1OC(=O)N1CCC(C(CC(C)C)NC(=O)c2ccc(Cl)s2)CC1` (centres unmarked), the “PBMC PXC50_” value was 8.9. Regarding `Cc1ccc(C(=O)N[C@H](C2CC2)C2CCN(C(=O)Oc3cccnc3C)CC2)s1`, the “PBMC PXC50_” value amounted to 8.4.

The values are drawn from US10927078B2, “Modulators of indoleamine 2,3-dioxygenase” (GLAXOSMITHKLINE INTELLECTUAL PROPERTY DEVELOPMENT LIMITED, priority 2017, dated 2021).
